Experimental data: patent US12122761B2, “2-azaspiro[3.4]octane derivatives as M4 agonists” (NOVARTIS AG, priority 2019, dated 2024)

The chains behind the UniProt entries cited, without tags or fusion partners.
UniProt P08173, whole entry: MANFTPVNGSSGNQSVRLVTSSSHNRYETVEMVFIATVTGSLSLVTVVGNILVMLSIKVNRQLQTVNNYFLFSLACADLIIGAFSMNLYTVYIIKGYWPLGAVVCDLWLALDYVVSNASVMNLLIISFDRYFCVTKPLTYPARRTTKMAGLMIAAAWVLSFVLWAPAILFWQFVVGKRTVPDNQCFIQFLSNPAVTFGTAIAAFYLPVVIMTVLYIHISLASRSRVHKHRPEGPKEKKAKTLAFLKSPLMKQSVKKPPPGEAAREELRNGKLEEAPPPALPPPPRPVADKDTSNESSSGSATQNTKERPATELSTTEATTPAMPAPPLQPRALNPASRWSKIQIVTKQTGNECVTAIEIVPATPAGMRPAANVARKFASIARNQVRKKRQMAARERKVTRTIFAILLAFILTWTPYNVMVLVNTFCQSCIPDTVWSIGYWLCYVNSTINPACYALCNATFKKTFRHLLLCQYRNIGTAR

Target: T1, human cloned CHRM4 receptor (M4_CHO cells) (Homo sapiens, UniProt P08173)
T1 construct: expressed in transfected cells; host or cells: CHO-K1
Test: CHRM4 Ca++ Flux Assay (agonist mode, FDSS 7000EX)
Assay type: cell-based
Conditions: Percent Activity, read-out: M4 FDSS PA
Procedure: The above examples were characterized by measuring the intracellular mobilization of Ca++ ions caused by signaling events mediated by the receptor. The Intra-cellular Calcium flux levels were captured by the highly sensitive Ca++ indicator, Calcium Assay Kit (BD Biosciences, Catalog Number 640178). The fluorescent activity from all receptors were monitored by the fluorescent imager, FDSS 7000EX (Hamamatsu) over a span of 3 minutes.
CHO-K1 cells stably expressing the human cloned CHRM4 receptor (M4_CHO cells) were grown and maintained in a monolayer culture with F12/HAM (Life Technologies) supplemented with 10% Fetal Bovine Serum, 1× Pen-Strep, and 0.4 mg/mL Geneticin in a humidified atmosphere (5% CO2) at 37° C. The cultures were grown to 80-90% confluency in T150 flasks (Corning) and washed with 1×DPBS then lifted with 0.05% Trypsin (Life Technologies). The cells were harvested in growth media then spun (1K rpm, 3 minutes) and cryopreserved using Recovery Cell Culture Freezing Media (Gibco Technologies). […]
Prior to the day of the assay, stable M4_CHO cells were thawed and plated on 384 well black walled clear bottom TC treated plates (Greiner Cat #781091) at 12K cells/well using F12/HAM Media supplemented with 10% FBS (Life Technologies) and kept overnight in a humidified atmosphere (5% CO2) at 37° C. […] The Percent Activity (PA) was measured to EC100 of Carbachol.

Emax [%]	Structure (SMILES)
65	CCOc1ccccc1C1CCN([C@@H]2CCC3(C2)CN(C(=O)C2COC2)C3)CC1 [Example 7J, (R)-(6-(4-(2-ethoxyphenyl)piperidin-1-yl)-2-azaspiro[3.4]octan-2-yl)(oxetan-3-yl)methanone]
52	COc1ccc(F)cc1C1CCN([C@@H]2CCC3(C2)CN(C(=O)C2COC2)C3)CC1 [Example 6A, (R)-(6-(4-(5-fluoro-2-methoxyphenyl)piperidin-1-yl)-2-azaspiro[3.4]octan-2-yl)(oxetan-3-yl)methanone]
